Among the data in ChEMBL document CHEMBL2424616, “Synthesis and antimicrobial activity of novel 5-(1-adamantyl)-2-aminomethyl-4-substituted-1,2,4-triazoline-3-thiones” (2013) are MIC values, retold here.

In the experiment the test system is Escherichia coli. The conditions noted are these: IFO 3301.

Broadly, the MIC is the least concentration at which growth counts as inhibited. Low values mean greater potency, high ones weaker potency.

The sequence GENTAMICIN had a minimal inhibitory concentration (MIC) of 0.5 µg/mL.
